Source: patent US20130315825A1, “TRICYCLIC HETEROAROMATIC COMPOUNDS AS ALPHA-SYNUCLEIN LIGANDS” (Washington University, priority 2012, published 2013)

Molecular target: α-synuclein fibrils (Homo sapiens, UniProt P37840)
Experiment: ThT competitive binding assay with α-synuclein fibrils

IC50: 72.9 nM
Ki (mean ± SEM, at least three experiments, Cheng-Prusoff from IC50): 17.5 nM
SMILES: COc1ccc2c(c1)Nc1ncc([N+](=O)[O-])cc1O2
